# Test results published in PMC5177531.
# Sequences of proteins named here, by UniProt entry; tags and fusion partners are left off.
# mu opioid receptor (C57 WT spinal cord) (Mus musculus), P42866, UniProt P42866, whole entry: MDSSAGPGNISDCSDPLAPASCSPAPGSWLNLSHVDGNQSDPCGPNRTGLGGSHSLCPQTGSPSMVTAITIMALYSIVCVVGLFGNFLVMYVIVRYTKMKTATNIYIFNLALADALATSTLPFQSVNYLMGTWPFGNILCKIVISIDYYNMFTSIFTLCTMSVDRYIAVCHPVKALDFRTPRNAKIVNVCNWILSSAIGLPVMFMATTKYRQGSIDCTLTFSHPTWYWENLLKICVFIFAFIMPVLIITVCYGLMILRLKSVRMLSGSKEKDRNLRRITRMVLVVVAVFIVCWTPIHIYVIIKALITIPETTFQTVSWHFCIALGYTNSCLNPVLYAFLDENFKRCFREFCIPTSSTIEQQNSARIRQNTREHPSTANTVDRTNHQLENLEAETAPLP
# B1: 3H-DAMGO (peptide)
# chain: YAGFG
# Tests used:
# Experiment in all cases: radioligand
# Details in all cases: modification not given
# [1] = target: mu opioid receptor (C57 WT spinal cord) (Mus musculus), P42866
# [2] = target: mu opioid receptor (C57 WT brain) (Mus musculus), P42866
# [3] = target: mu opioid receptor (129 WT spinal cord) (Mus musculus), P42866
# [4] = target: mu opioid receptor (C57 E11 KO spinal cord) (Mus musculus), P42866
binder,measurement,setting,value
B1,Kd,[1],0.6 nM
same,Kd,[2],0.5 nM
same,Kd,[3],0.3 nM
same,Kd,[4],0.7 nM
